Test results reported in US9790189B2, “Disubstituted 5-fluoro pyrimidine derivatives containing a sulfondiimine group” (Bayer Pharma Aktiengesellschaft, priority 2014, dated 2017).

What was measured:
CDK2/CycE [1] = target: T1, CDK2/CycE (Homo sapiens, UniProt P24941); assay: CDK2/CycE kinase assay (TR-FRET, Method 2a)
CDK2/CycE [2] = target: T1, CDK2/CycE; assay: CDK2/CycE high ATP kinase assay (TR-FRET, Method 2b)

With `COc1cc(F)ccc1-c1nc(Nc2cc(F)cc(CS(C)(=N)=N)c2)ncc1F` [Example 1, 5-Fluoro-4-(4-fluoro-2-methoxyphenyl)-N-{3-fluoro-5-[(S-methylsulfonodiimidoyl)methyl]phenyl}pyrimidin-2-amine] the IC50 (CDK2/CycE [1]) was 0.79 µM and the IC50 (CDK2/CycE [2]) was 10.5 µM.
